# Measurements: ChEMBL document CHEMBL1140697, “Synthesis and evaluation in monkey of two sensitive 11C-labeled aryloxyanilide ligands for imaging brain peripheral benzodiazepine receptors in vivo” (J Med Chem, 2008)
# Sequences of proteins named here, by UniProt entry; tags and fusion partners are left off.
# UniProt P30536, whole entry: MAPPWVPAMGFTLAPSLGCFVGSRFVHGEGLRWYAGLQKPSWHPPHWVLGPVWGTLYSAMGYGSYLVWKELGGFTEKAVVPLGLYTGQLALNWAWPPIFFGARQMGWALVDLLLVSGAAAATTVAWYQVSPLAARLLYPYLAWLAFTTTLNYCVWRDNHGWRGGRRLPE
# pKi: −log10 of the molar value.
# Target: Translocator protein (Homo sapiens, UniProt P30536)
# Test: Binding affinity to PBR in human mitochondrial tissue
# Procedure, shortened: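 Mitochondrial fractions (rat, rhesus monkey or human) were incubated with [³H]PK 11195 (0.38 nM final) and eight test-ligand concentrations for 2 h at 4 °C. Samples were filtered on PEI-presoaked GF/B filters, washed with ice-cold buffer and counted. Nonspecific binding was taken at the top inhibitor level (0.1–0.3 µM). Triplicate curves were run in two independent experiments. IC₅₀ was converted to K_i by Cheng–Prusoff, using K_D from homologous PK 11195 displacement.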
smiles,measurement,value
CC[C@H](C)N([11CH3])C(=O)c1cc2ccccc2c(-c2ccccc2Cl)n1,pKi,8.35
